Article PMC7311425, “DREAM-in-CDM Approach and Identification of a New Generation of Anti-inflammatory Drugs Targeting mPGES-1” (Scientific Reports, 2020)

Molecular target: T1, human mPGES-1 (Homo sapiens, UniProt O14684)
T1 construct: made in house
T1 sequence (O14684 1-152): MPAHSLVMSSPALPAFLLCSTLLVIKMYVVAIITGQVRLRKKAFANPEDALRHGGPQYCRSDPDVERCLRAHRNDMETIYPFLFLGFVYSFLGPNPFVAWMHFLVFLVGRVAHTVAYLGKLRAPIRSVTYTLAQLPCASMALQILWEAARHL
Experiment: in vitro inhibitory activity against human mPGES-1 (PGE2 ELISA assay)
Type: biochemical
Settings: IC50 (µM)
Protocol: The above computational predictions were followed by in vitro activity assays for their actual inhibitory activity against human mPGES-1 using an ELISA assay described in our previous reports[32]–[34]. […] Specifically, 15 FDA-approved drugs (see Fig. S1 of the Supporting Information for the molecular structures) were assayed for their inhibitory activity against human mPGES-1.
The protocol for the protein preparation and in vitro activity assays were the same as described previously[51]–[54]. The enzyme activity assays were performed on ice in 1.5 ml microfuge tubes by using the expressed human or mouse mPGES-1. The reaction mixture contained: 0.2 M Na2HPO4/NaH2PO4, pH 7.2, 10 µL; 0.1 M GSH, 2.5 µL; diluted microsomal enzyme (80 µg/mL), 1 µL; PGH2 (0.31 mM in DMF), 5 µL; 1 µL inhibitor; and H2O in a final reaction volume of 100 µL. PGH2 was stored in dry ice and used to initiate the reaction. Compounds were incubated with the enzyme for 15 min at room temperature before the addition of cold PGH2 ([…]) to initiate the enzyme reaction. After 30 s, 10 µL of SnCl2 (40 mg/mL) in ethanol was added to stop the reaction. […] The reaction mixture was placed on ice until PGE2 production was determined by the PGE2 enzyme immunoassay as described earlier. IC50 values of the inhibitors were calculated by using the GraphPad Prism 7.

IC50: 12.6 ± 1.6 µM
SMILES: C[C@]12C=CC(=O)C=C1CC[C@@H]1[C@@H]2[C@@H](O)C[C@@]2(C)[C@H]1CC[C@]2(O)C(=O)CO [Prednisolone]
